{
  "sequences": {"note": "By UniProt entry, the sequences of proteins in these tests, tags left out.", "UniProt Q01827, whole entry": "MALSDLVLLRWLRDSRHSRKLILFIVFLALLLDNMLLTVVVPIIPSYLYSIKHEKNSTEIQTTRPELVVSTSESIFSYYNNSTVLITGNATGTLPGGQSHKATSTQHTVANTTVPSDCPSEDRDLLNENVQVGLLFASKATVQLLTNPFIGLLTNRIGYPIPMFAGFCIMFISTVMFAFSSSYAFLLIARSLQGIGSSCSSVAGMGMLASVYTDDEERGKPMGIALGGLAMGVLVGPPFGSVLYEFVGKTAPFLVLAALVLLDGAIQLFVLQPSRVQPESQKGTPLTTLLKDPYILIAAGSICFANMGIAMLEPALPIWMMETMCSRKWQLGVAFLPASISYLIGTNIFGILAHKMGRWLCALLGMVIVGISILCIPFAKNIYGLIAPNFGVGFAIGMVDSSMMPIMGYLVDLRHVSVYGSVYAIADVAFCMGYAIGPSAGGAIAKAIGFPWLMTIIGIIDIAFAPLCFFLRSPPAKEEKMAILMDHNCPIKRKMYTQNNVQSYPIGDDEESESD"},
  "source": "patent US20110039877A1",
  "about": "“USE OF 3, 11B-CIS-DIHYDROTETRABENAZINE IN THE TREATMENT OF MULTIPLE SCLEROSIS AND AUTOIMMUNE MYELITIS” (Biovail Laboratories International (Barbados) S.R.L., priority 2007, published 2011)",
  "origin": "cited, not measured here",
  "target": "[^3H]methoxytetrabenazine binding (VMAT2) (Rattus norvegicus, UniProt Q01827)",
  "settings": "in vitro; cited from earlier work",
  "data": [
    {"smiles": "COc1cc2c(cc1O[11CH3])CCN1C[C@@H](CC(C)C)[C@H](O)C[C@H]21", "note": "(single isomer, unassigned) [(+)-α-[^11C]dihydrotetrabenazine]", "values": [
      {"measurement": "Ki for [^3H]methoxytetrabenazine relative to the Ki of the other α-isomer", "result": "> 2000", "unit": "fold"}
    ]}
  ]
}
